Binding of CDR-mutated scFvs to a peptide of the spike HR2 region

Reference: Engelhart et al. 2022, doi:10.1038/s41597-022-01779-4. File: FLAb, binding data.

All variants were tested on one target, the spike HR2 peptide PDVDLGDISGINAS (SARS-CoV-2).

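AAYL50 was designed without a model: most single CDR substitutions and a random sample of double and triple ones. The scFvs were displayed on barcoded MATa yeast, the peptide on MATalpha yeast. Binding brings cells together so that they mate, and sequencing counts the barcode pairs among the diploids. A regression on co-assayed BCL2-family reference pairs converts the normalised counts of each replicate to an apparent Kd. There are three technical replicates.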

Parent scFv Ab-14: VH joined to VL by three GGGGS repeats. Changes lie in the light chain CDRs alone.
VH: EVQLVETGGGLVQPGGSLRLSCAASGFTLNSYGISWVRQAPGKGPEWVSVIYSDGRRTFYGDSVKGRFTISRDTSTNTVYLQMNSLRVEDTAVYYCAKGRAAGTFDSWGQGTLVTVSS
VL: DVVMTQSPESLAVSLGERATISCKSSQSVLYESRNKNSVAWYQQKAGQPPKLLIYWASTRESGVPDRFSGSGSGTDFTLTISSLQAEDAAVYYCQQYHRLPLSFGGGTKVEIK

Variants are written as CDR1, CDR2 and CDR3 of the light chain (limits as in the source). Parent: KSSQSVLYESRNKNSVA, WASTRES, QQYHRLPLS. All variants listed here change V39 of the VL, counted from its first residue. The Kd shown is the geometric mean over detected replicates; a lower Kd is a better binder. Where no diploid with the target was found in any replicate, the entry reads "no signal": below detection, most likely a poor binder, though not proof of it. As a blank, each scFv also met three strains without target: over library AAYL50, 18% of these pairings were detected, typically at 15 µM and seldom below 970 nM.

| CDR-L1 | CDR-L2 | CDR-L3 | Kd | replicates with signal |
|---|---|---|---|---|
| KSCQSVLYESRNKNSNA | WASTRES | QQYHRLPLS | no signal | 0/3 |
| KSSQSVLYESRNKNSCA | WASTRAS | QQYHRSPLS | 14 µM | 1/3 |
| KSSQSVLYESQNKNSLA | WASTRES | QQYHRLPLS | 3.5 nM | 3/3 |
| KTSQEVLYESRNKNSRA | WASTRES | QQYHRLPLS | no signal | 0/3 |
| KSSQSVLYESRNKNSWA | WASTREG | QQYHRLPLS | 20 µM | 2/3 |
| KSSQSVLYESRTKNSRL | WASTRES | QQYHRLPLS | no signal | 0/3 |
| KSSQSVLYESRNKNMHA | WASTRES | QQYHSLPLS | no signal | 0/3 |
| KSSQSVYYESRNVNSKA | WASTRES | QQYHRLPLS | 8.6 µM | 3/3 |
| KSSQSVLYESRNKNSKY | WASTRES | QQYHCLPLS | no signal | 0/3 |
| KSSQSVLYESVNKNSFA | WASTRES | NQYHRLPLS | 230 µM | 2/3 |
| KSSQSVLYASRNKNSPA | WASTTES | QQYHRLPLS | no signal | 0/3 |
| KSSQSVLYESRNKNSNA | WASTRES | QQYHRTPLS | 300 µM | 3/3 |
| KSSWSVLYESRYKNSGA | WASTRES | QQYHRLPLS | no signal | 0/3 |
| KSSDSVLYESRNSNSCA | WASTRES | QQYHRLPLS | 700 nM | 3/3 |
| KSSQSVLYESRNKNSFA | NAQTRES | QQYHRLPLS | 2.2 nM | 3/3 |
| KSSQSMLYESRHKNSQA | WASTRES | QQYHRLPLS | 5.6 µM | 2/3 |
| KSSQSVLYEVRNKNSYA | WASTRES | QQYHRGPLS | 61 µM | 1/3 |
| KSSQSVLYESRNKNSWA | WASTREY | QSYHRLPLS | 24 µM | 2/3 |
| KSSQSVLYESRNKNSRA | WASTRES | QQYHRLPLS | 13 nM | 3/3 |
| KSSQSVLYESRNKNSSA | WASTRES | QQYHKLPGS | 100 µM | 2/3 |
| KSSQSFLYESRNKNSLA | WASTRSS | QQYHRLPLS | no signal | 0/3 |
| KSSQSVLYESKNKNSPA | WASTEES | QQYHRLPLS | 5.3 µM | 1/3 |
| KSSQSKLYESRNKNSDA | WASTRES | QQWHRLPLS | 4.8 µM | 2/3 |
| KSSQSSLYESRNKNSGA | WASTDES | QQYHRLPLS | 2.5 µM | 1/3 |
| KSSQHVLYESRNKNSGA | WASTRES | QQYHRLPLS | no signal | 0/3 |
| KSSQSVLFESRNKNSAA | WASTRES | QQLHRLPLS | no signal | 0/3 |
| KSSQSVLYESRNKRSKA | RASTRES | QQYHRLPLS | 540 µM | 3/3 |
| KSSQSVLYESHNKNSKA | WAVTRES | QQYHRLPLS | 4.5 µM | 2/3 |
| KSSQSVLYESRNKNSDA | EASTRES | QQYHRLPLS | 450 nM | 1/3 |
| KSSQSVLYESRNKNSMH | WASMRES | QQYHRLPLS | no signal | 0/3 |
| KSSQSVLYESRHKNSNA | WASTRES | QQYHRLPLS | no signal | 0/3 |
| KSSQSVLYRSRNKNSLA | WASSRES | QQYHRLPLS | 2.2 µM | 2/3 |
| KSSQSVLYESRNKNSAA | WANTRES | KQYHRLPLS | 52 µM | 1/3 |
| KSGQSVLYESRNKNSHA | WASTRQS | QQYHRLPLS | no signal | 0/3 |
| KLSQSVWYESRNKNSIA | WASTRES | QQYHRLPLS | 32 µM | 3/3 |
| KSSQSVLYESRNKNSQA | WASTRTS | QQYHWLPLS | no signal | 0/3 |
| KSTGSVLYESRNKNSWA | WASTRES | QQYHRLPLS | no signal | 0/3 |
| KSSQSVLYESRNKNSDA | WASTRDS | QQYHPLPLS | no signal | 0/3 |
| KSSQSVLYESRNKNSKR | WASTRES | QQYHRLPLS | no signal | 0/3 |
| KSSQSVLYYSRNKNSAA | WASTRES | QQYHRLPLS | no signal | 0/3 |
| KSSQSVLYESRNKNSRA | WASTRES | QQYHRMPFS | no signal | 0/3 |
| KSSQSVLYESFNKNSIT | WASTRES | QQYHRLPLS | 130 µM | 1/3 |
| KSSQSVLYESRNKNSLM | WASTRES | QIYHRLPLS | 9.5 µM | 1/3 |
| KSSQSVLYYSRNKNSFA | IASTRES | QQYHRLPLS | 180 µM | 1/3 |
| KSDQSVLYESRNKNSHA | WASTRES | QQYPRLPLS | no signal | 0/3 |
| KSSQSVLYESRNKNSHA | WASTRWS | QQYHDLPLS | no signal | 0/3 |
| KSSQSVLYESRNKNSGA | WASMRES | QQYHRLPLS | no signal | 0/3 |
| KSSQSVLYESRNKQSQA | WASTRIS | QQYHRLPLS | 3.2 µM | 2/3 |
| KSSQSVLYESRNKNSLA | WASTRES | QQYNRIPLS | 52 nM | 3/3 |
| KSSQSELYESRNKNSEA | WASTRES | QQCHRLPLS | no signal | 0/3 |
| KSSQGVLYESRNKNSNA | WASTREK | QQYHRLPLS | 23 µM | 2/3 |
| KSSQSVLYESRNPNSSY | WASTRES | QQYHRLPLS | no signal | 0/3 |
| KSSQSVLYESRNKNSDA | WASTRES | QQYHRLMLS | 44 µM | 1/3 |
| KSSQSVLYESRNKNRIQ | WASTRES | QQYHRLPLS | no signal | 0/3 |
| KSSQSVLGESRNKSSQA | WASTRES | QQYHRLPLS | 1.3 mM | 1/3 |
| KSHQSVLYESRNKNSCA | WASTRES | QQYHRLLLS | no signal | 0/3 |
| KSSQSVLYESRNKNSCA | WASTRRS | QQYHRLPKS | 70 µM | 1/3 |
| WSSQSVLYESRNKNSNA | WASTRES | QQYHRLRLS | 11 nM | 3/3 |
| KSSQSVLYESRNKNSIA | WANTRES | QQYHRLFLS | 130 nM | 3/3 |
| KSSQDVLYESRNKNSWA | WAKTRES | QQYHRLPLS | no signal | 0/3 |
| KSSQSVLLESRNKNSCA | WASTRES | QQSHRLPLS | 15 µM | 3/3 |
| KSSQSVLYESRNKNSTA | WAGTAES | QQYHRLPLS | no signal | 0/3 |
| KSSQSVLYLSRNKNSNA | WAHTRES | QQYHRLPLS | no signal | 0/3 |
| KSSQSVLYESRNKNFEA | WASTREV | QQYHRLPLS | no signal | 0/3 |
| ESSQSVLYESRNKNSMA | WAMTRES | QQYHRLPLS | no signal | 0/3 |
| KSSQSVLYESRNKNSYA | AASTRDS | QQYHRLPLS | no signal | 0/3 |
| KSSQSVLYESRWKNSDA | WASTRMS | QQYHRLPLS | no signal | 0/3 |
| KSSCSVLYESRNKNSEA | WASTRES | QQCHRLPLS | no signal | 0/3 |
| KSSQDVLYESHNKNSNA | WASTRES | QQYHRLPLS | no signal | 0/3 |

The 7 strongest on average among those seen in every replicate, once more:

CDR-L1	CDR-L2	CDR-L3	Kd	replicates with signal
KSSQSVLYESRNKNSFA	NAQTRES	QQYHRLPLS	2.2 nM	3/3
KSSQSVLYESQNKNSLA	WASTRES	QQYHRLPLS	3.5 nM	3/3
WSSQSVLYESRNKNSNA	WASTRES	QQYHRLRLS	11 nM	3/3
KSSQSVLYESRNKNSRA	WASTRES	QQYHRLPLS	13 nM	3/3
KSSQSVLYESRNKNSLA	WASTRES	QQYNRIPLS	52 nM	3/3
KSSQSVLYESRNKNSIA	WANTRES	QQYHRLFLS	130 nM	3/3
KSSDSVLYESRNSNSCA	WASTRES	QQYHRLPLS	700 nM	3/3